Data on 2 molecules can be found in patent US20140005163A1 (NOVARTIS AG, priority 2010, published 2014).

Protein sequences, listed by entry. Tags and fused reporters are not part of them. Chains listed by the source or under a name are the forms on record and can include a tag or linker. Residues count along the entry.
UniProt O00329, 2-1044 with tags or gaps limits assumed: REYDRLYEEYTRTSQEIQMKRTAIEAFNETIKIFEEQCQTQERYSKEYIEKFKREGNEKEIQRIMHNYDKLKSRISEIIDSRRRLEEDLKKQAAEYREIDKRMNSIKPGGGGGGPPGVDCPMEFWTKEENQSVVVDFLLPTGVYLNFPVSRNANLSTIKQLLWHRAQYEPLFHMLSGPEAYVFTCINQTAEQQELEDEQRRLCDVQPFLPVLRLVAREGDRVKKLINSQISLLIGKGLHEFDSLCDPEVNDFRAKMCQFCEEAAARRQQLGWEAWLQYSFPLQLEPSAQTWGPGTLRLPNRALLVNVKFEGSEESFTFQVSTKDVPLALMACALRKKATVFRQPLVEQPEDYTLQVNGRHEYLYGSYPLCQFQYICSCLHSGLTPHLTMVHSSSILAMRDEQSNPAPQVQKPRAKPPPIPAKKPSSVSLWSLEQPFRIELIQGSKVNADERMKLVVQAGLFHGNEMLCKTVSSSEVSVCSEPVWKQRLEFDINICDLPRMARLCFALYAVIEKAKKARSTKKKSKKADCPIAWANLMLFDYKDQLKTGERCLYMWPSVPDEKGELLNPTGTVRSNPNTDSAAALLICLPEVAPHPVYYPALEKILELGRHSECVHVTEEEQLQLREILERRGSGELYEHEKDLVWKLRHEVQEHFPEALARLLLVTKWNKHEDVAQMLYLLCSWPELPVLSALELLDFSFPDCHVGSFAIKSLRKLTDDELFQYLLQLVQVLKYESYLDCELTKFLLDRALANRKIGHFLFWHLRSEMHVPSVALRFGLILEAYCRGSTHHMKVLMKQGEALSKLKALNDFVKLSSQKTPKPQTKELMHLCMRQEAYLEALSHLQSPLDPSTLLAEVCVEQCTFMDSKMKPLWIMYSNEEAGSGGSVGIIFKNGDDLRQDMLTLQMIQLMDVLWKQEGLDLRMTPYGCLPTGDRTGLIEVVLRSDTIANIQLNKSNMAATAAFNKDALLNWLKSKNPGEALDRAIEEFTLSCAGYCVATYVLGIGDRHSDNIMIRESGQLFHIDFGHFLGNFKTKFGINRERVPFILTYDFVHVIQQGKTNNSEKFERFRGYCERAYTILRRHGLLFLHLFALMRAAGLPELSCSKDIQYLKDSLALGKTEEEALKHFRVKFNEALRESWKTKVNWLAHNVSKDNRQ
UniProt P42336, 21-1068 with tags or gaps limits assumed: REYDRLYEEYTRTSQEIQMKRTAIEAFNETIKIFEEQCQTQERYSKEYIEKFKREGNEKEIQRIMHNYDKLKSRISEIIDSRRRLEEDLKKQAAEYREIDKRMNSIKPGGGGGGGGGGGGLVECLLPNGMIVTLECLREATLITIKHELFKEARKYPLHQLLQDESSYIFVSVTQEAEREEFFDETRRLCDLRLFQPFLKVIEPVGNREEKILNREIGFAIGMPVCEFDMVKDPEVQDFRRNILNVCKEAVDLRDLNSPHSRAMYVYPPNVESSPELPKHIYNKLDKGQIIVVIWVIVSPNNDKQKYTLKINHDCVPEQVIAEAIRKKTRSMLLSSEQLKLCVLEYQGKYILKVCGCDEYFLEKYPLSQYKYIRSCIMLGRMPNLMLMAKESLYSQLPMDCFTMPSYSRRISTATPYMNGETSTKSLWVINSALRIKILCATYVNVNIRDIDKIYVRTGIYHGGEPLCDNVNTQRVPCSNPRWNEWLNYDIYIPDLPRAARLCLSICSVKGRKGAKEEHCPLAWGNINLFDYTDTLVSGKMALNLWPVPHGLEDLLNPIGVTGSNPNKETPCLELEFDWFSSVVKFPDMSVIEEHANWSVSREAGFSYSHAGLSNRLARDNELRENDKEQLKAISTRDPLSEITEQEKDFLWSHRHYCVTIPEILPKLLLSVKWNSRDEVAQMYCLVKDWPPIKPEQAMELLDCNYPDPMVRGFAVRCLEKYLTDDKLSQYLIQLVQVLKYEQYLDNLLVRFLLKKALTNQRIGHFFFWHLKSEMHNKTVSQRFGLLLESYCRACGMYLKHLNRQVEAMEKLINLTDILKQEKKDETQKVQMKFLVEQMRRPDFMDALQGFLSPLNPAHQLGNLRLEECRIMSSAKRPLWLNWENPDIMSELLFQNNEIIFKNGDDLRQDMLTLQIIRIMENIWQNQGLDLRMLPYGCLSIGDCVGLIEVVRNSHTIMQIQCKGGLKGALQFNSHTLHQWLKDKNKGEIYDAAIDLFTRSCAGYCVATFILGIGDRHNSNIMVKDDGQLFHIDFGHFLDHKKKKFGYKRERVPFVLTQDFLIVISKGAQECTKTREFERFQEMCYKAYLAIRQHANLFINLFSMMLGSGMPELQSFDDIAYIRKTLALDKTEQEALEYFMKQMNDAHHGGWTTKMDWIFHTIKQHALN
UniProt P42338, 2-1070 with tags or gaps limits assumed: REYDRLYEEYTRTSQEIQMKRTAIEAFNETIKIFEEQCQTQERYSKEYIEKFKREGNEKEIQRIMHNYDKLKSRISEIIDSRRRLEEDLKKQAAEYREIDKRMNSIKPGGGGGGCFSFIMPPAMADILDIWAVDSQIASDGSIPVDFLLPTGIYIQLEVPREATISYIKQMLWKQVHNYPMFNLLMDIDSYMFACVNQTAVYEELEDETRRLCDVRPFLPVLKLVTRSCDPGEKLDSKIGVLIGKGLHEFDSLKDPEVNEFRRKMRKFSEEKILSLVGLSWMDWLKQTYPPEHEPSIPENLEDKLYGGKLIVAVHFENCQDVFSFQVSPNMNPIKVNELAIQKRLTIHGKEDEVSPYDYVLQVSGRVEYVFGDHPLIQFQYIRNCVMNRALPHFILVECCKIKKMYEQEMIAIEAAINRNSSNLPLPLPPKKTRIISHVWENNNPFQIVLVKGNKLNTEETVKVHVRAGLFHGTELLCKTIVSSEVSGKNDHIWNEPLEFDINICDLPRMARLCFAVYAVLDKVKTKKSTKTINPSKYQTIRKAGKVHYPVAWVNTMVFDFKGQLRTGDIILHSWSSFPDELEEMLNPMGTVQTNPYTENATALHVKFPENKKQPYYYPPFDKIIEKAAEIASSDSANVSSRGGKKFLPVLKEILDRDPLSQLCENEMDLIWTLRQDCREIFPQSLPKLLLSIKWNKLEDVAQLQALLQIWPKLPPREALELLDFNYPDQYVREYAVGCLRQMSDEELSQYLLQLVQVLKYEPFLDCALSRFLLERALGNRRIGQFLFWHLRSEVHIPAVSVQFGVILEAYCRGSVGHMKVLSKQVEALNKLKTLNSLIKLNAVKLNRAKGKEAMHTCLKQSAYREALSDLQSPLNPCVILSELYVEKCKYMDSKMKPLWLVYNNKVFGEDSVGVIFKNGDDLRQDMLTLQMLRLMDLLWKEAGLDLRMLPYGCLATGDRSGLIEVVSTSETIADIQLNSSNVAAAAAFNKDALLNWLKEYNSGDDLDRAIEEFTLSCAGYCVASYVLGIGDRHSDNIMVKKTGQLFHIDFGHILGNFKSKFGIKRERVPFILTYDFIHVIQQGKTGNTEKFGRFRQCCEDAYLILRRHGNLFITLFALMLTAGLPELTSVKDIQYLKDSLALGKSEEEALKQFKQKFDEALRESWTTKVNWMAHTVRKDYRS
UniProt P42345, 1360-2549 limits assumed: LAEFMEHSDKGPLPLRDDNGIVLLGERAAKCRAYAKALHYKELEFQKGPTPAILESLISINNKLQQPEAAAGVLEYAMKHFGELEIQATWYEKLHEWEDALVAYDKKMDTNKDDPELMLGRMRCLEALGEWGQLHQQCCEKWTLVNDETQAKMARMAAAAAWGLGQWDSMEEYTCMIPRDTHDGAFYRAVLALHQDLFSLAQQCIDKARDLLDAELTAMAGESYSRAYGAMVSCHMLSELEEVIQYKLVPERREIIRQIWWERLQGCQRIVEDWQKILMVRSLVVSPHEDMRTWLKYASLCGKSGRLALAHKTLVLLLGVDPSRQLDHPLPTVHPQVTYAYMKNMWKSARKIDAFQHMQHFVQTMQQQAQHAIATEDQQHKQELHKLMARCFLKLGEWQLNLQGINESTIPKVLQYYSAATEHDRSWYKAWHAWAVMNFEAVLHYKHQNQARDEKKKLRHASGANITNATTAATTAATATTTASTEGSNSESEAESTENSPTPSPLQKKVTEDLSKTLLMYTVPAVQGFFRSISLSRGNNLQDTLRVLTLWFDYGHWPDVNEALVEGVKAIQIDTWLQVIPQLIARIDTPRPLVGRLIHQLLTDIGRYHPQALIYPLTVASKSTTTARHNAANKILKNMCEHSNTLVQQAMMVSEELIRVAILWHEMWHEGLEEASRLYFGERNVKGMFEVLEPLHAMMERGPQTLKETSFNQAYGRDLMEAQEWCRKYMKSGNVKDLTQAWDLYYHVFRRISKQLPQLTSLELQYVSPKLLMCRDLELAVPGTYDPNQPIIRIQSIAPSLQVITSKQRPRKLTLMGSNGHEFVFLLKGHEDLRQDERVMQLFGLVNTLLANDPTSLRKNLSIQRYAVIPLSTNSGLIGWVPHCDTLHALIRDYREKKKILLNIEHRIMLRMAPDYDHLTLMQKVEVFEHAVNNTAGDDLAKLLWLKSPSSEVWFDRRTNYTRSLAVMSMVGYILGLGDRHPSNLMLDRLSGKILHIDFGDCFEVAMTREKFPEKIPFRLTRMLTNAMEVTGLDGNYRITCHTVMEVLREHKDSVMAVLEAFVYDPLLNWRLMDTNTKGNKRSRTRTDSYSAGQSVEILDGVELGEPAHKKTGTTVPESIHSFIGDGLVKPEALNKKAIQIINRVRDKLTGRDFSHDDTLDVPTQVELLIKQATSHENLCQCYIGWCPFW

The subject of series [1] is S6 Ribosomal Protein phosphorylation Ser235/236 in TSC1 null mouse embryo fibroblast (MEF) cells. The series can be described thus: Reverse protein array assay, S6 Ribosomal Protein phosphorylation Ser235/236 in TSC1 null MEF cells. As to conditions: read-out: p-S6 IC50, pS6 ribosomal protein Ser235/236, 60 minutes incubation.
For a further series, the target named is PI3K delta (Homo sapiens, UniProt O00329). As to the kind of experiment: PI3K delta kinase assay (Kinase-Glo luminescence). The following applies: read-out: PI3K delta IC50. In general terms: Kinase-Glo measures the ATP left after a reaction by luminescence.
The test system of series [2] is PKB Ser473 phosphorylation in Rat1-myr-HA-p110 delta cells. As to the kind of experiment: Reverse protein array assay, PKB Ser473 phosphorylation in Rat1-myr-p110 delta cells. The following applies: read-out: p-PKB IC50.
The test system of series [3] is PKB Ser473 phosphorylation in Rat1-myr-HA-p110 alpha cells. The series can be described thus: Reverse protein array assay, PKB Ser473 phosphorylation in Rat1-myr-p110 alpha cells. As to conditions: read-out: p-PKB IC50, pAkt Ser473, 30 minutes compound incubation.
Another series has as its target PI3K alpha (Homo sapiens, UniProt P42336). The series can be described thus: PI3K alpha kinase assay (Kinase-Glo luminescence). As to conditions: read-out: PI3K alpha IC50.
A further series addresses PI3K beta (Homo sapiens, UniProt P42338). The series can be described thus: PI3K beta kinase assay (Kinase-Glo luminescence). The following applies: read-out: PI3K beta IC50.
The subject of series [4] is PKB Ser473 phosphorylation in Rat1-myr-HA-p110 beta cells. The series can be described thus: Reverse protein array assay, PKB Ser473 phosphorylation in Rat1-myr-p110 beta cells. It counts as cell-based. The following applies: read-out: p-PKB IC50, pAkt Ser473, 30 minutes incubation.
For another series, the target named is mTOR (Homo sapiens, UniProt P42345). The series can be described thus: Biochemical assay for m-TOR by TR-FRET. The following applies: read-out: mTOR IC50, 8 μM ATP, 400 nM GFP-4EBP1, 0.5 nM mTOR. For orientation: TR-FRET usually uses a lanthanide donor and a delayed reading to cut background.
For a further series, the system named is CaCo2. As to the kind of experiment: Cellular CaCo2 permeability assay from apical to basal (A-B). For orientation: Caco-2 monolayers are a common model of the intestinal barrier.

Molecules are shown by their SMILES. pIC50: −log10 of the molar value. Values after ≈ are worked out from the molar mass of the structure shown. Bounds are passed on as bounds.

Turning to `COc1ncc(-c2ccc3ncc4c(c3c2)n(-c2cn(C)nc2C)c(=O)n4C)cc1OC(C)C`, the pIC50 in series [1] was 9.00; on PI3K delta, > 8.52; in series [2] it was 8.10; in series [3], > 8.30; at PI3K alpha, 8.40; on PI3K beta, 8.40. In addition, the pIC50 in [4] is 8.05; on mTOR it was > 8.52. For the same molecule, the solubility (commonly how much of the substance goes into solution per volume) in “Solubility at pH 6.8” stood at 4 µg/mL (≈ 8.72 µM).

Regarding `CCn1cc(-n2c(=O)n(C)c3cnc4ccc(-c5cnc(C)c(OC(C)C)c5)cc4c32)c(C)n1`, the pIC50 was 8.30 in [1]; 8.30 on PI3K delta; 7.80 in [2]; > 8.30 in series [3]; 8.40 at PI3K alpha; 7.52 on PI3K beta. On mTOR, the pIC50 is 7.72. The molecule also registered a solubility in “Solubility at pH 6.8” of 246 µg/mL (≈ 539 µM). For the same molecule, the “Pe A-B (permeability)” value with CaCo2 is 26.4 10^−6 cm/s.
